Results as given in PubChem BioAssay AID488837 (National Center for Advancing Translational Sciences (NCATS), 2010).
“And” between values parts separate entries of the source, which are not always exact repeats. Equal entries are not always repeated. Only a part is listed here, and it is no random draw. The source made the active and inactive calls. The call rests on the fitted dose curve; in most records, active means well fitted inhibition curve with a large enough effect; inconclusive means small, poorly fitted or top-dose-only effect, or effect the other way; inactive means flat fitted curve, though single readings scatter.
On the % scale 0 is the no-effect control and ±100 the full control effect.

By UniProt entry, the sequences of proteins in these tests, tags left out. Where a name states a change or a piece, a line headed by the entry shows the natural chain unless it says otherwise.
UniProt O00167: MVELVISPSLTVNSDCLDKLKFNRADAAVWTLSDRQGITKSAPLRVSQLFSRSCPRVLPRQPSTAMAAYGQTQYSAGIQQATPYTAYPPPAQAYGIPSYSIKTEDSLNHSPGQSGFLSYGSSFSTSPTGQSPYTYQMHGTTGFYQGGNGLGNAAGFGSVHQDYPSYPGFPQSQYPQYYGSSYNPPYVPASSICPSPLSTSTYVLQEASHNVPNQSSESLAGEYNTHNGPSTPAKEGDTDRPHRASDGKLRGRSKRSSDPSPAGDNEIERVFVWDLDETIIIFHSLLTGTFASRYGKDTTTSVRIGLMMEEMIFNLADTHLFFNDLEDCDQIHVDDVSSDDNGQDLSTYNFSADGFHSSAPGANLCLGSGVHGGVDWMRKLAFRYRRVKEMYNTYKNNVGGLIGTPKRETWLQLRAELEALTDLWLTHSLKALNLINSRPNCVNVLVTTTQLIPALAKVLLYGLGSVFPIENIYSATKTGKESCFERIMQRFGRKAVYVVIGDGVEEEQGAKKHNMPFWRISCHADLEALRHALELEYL

The compounds below were run against Protein phosphatase EYA2 (Homo sapiens) (UniProt O00167) (assay: qHTS Assay for Inhibitors of the Phosphatase Activity of Eya2). Details: recombinant Eya2, OMFP fluorescence dephosphorylation (OMFP is methylfluorescein phosphate); at 76.9 µM (top of the series) unless noted.
Text: The Eya family of proteins are essential co-activators of the Six1 transcription factor. Six1 is a developmental gene that is abnormally re-expressed in a large percentage of breast cancers. This over-expression plays a causal role in the initiation and metastatic development of breast cancers. The Eya family of proteins was also found to contain a unique HAD phosphatase domain with protein tyrosine phosphatase activity which can potentially play a role in Six1-mediated breast tumorigenesis. […] We have developed and optimized a 1536 well fluorescence-based HTS assay targeting the phosphatase activity of Eya2. Inhibitors found against Eya2 could serve as potential therapeutic tools to inhibit Six1-mediated breast tumorigenesis and to increase the efficiency of radiation and certain chemo therapy. These inhibitors could also be used as chemical probes to study the function of Eya2's phosphatase activity and its role in Six1-mediated breast tumorigenesis.
The Eya2 enzyme was kindly provided by the laboratory of Dr. Rui Zhao. The 3-O-methyl-fluorescein phosphate (OMFP) substrate and all buffer reagents were purchased from Sigma Aldrich. qHTS Assay Setup: 1. Buffer- 50 mM HEPES pH 7.5, 50 mM NaCl, 5 uM MgCl2, 0.05% BSA, 1 mM DTT. 2. OMFP Stock- 10 mM solution prepared in 100% DMSO and stored in single use aliquots at -20C. Assay Procedure- 1. Dispense 1.5 ul per well of Eya2 at 0.2 uM in black medium binding 1536 well Greiner plate 2. Transfer 23 nl of compound and control compound (EGTA) to plate 3. Incubate at ambient for 10 minutes 4. Dispense 1.5 ul per well of OMFP at 50 uM 5. Incubate at ambient for 10 minutes 6. Read on ViewLux using Excitation = 485 nm, Emission = 525 nm
In the case of `CN(C)C(=O)Oc1noc2ccccc12`, the activity, negative = inhibition is reported as inactive: -1.23%.
For `O=c1c2cc([N+](=O)[O-])ccc2[nH]c2c([N+](=O)[O-])cc([N+](=O)[O-])cc12`, the activity, negative = inhibition was inactive: 1.45%.
In the case of `CN(C)C1(CNC(=O)c2ccc(Cl)c(S(N)(=O)=O)c2)CCCCC1`, the activity, negative = inhibition is reported as inactive: 3.72%.
`O=P(Nc1ccccn1)(c1ccc(Br)cc1)c1ccc(Br)cc1` was tested, and the activity, negative = inhibition was inactive: -4.38%.
`O=P(Nc1nc2ccccc2s1)(c1ccccc1)c1ccccc1` was tested, and the activity, negative = inhibition was inactive: -21.9%.
`C[C@H]1OP(=O)(Oc2ccccc2)[C@H](O)[C@H](O)[C@H]1N=[N+]=[N-]` (stereo partly drawn) was tested, and the activity, negative = inhibition was inactive: -6.14%.
For `CC(=O)NC(SC(=S)N(C)C)C(Cl)(Cl)Cl` (stereo not drawn), the activity, negative = inhibition was inactive: 10.3%.
With `O=[N+]([O-])c1ncn(CCn2cnc([N+](=O)[O-])n2)n1` the activity, negative = inhibition was inactive: 8.26%.
In the case of `O=[N+]([O-])c1ccc(O)c(/C=N/Nc2ccc([N+](=O)[O-])cc2[N+](=O)[O-])c1`, the activity, negative = inhibition is reported as inactive: 14.1%.
In the case of `O=[As](O)(c1ccccc1)c1ccc(O)cc1`, the activity, negative = inhibition is reported as inactive: 15%.
`Nc1ccc([As](=O)(O)c2ccc([N+](=O)[O-])cc2)cc1` was tested, and the activity, negative = inhibition was inactive: 11.9%.
`C(Cc1nn[nH]n1)Cc1nn[nH]n1` was tested, and the activity, negative = inhibition was inactive: 3.66%.
`O=C(OC1CN2CCC1CC2)c1cccc(Cl)c1` (stereo not drawn) was tested, and the activity, negative = inhibition was inactive: 21.6%.
`O=P(Nc1nccs1)(c1ccccc1)c1ccccc1` was tested, and the activity, negative = inhibition was inactive: 3.01%.
`CC(C)C(=O)NC(Sc1ccccc1)C(Cl)(Cl)Cl` (stereo not drawn) was tested, and the activity, negative = inhibition was inactive: -23.6%.
In the case of `c1nnnn1CCn1cnnn1`, the activity, negative = inhibition is reported as inactive: 17.1%.
`COc1ccc(C2=NCC(CBr)S2)cc1` (stereo not drawn) was tested, and the activity, negative = inhibition was inactive: -2.47%.
For `CC(=O)N1C2C3N(C(C)=O)C1C1N(C(C)=O)C(C(N1C(C)=O)N3C(C)=O)N2C(C)=O`, the activity, negative = inhibition was inactive: 10.7%.
In the case of `O=[N+]([O-])c1cccc2n[nH]nc12`, the activity, negative = inhibition is reported as inactive: 22%.
With `Cc1ccc(NP(=O)(Oc2ccccc2)Oc2ccccc2)nc1` the activity, negative = inhibition was inactive: -2.38%.
`O=[N+]([O-])c1cc([N+](=O)[O-])c(CCNc2ccccc2)c([N+](=O)[O-])c1` was tested, and the activity, negative = inhibition was inactive: -2.1%.
In the case of `CCc1nc2c(n1)c1c(non1O)c1c2no[n+]1[O-]`, the activity, negative = inhibition is reported as inactive: 20.1%.
With `Nc1ccc([As](=O)(O)c2ccc(N)cc2)cc1` the activity, negative = inhibition was inactive: -15.6%.
With `C[N+]1=C2C=CC=CC=C2SC12C([N+](=O)[O-])=CC([N+](=O)[O-])=C[C-]2[N+](=O)[O-]` (stereo not drawn) the activity, negative = inhibition was inactive: -9.69%.
In the case of `CCN(/C(=N/P(=O)(N1CCOCC1)N1CCOCC1)N1CCOCC1)c1ccc(OC)cc1`, the activity, negative = inhibition is reported as inactive: 9.41%.
For `CC(C)=N/N=C(\N)N[N+](=O)[O-]`, the activity, negative = inhibition was inactive: 6.25%.
In the case of `CN(C)C(=O)OCCc1n(C)cc[n+]1C`, the activity, negative = inhibition is reported as inactive: 0.503%.
With `CC1CCN(C(=O)Oc2c(Cl)cc(Cl)c3cccnc23)CC1` the activity, negative = inhibition was inactive: -15.6%.
With `O=C(Nc1cc([As](=O)(O)O)ccc1O)c1ccccc1` the activity, negative = inhibition was inactive: -4.91%.
With `CC(C)(C)C(=O)NC(Sc1ccncn1)C(Cl)(Cl)Cl` (stereo not drawn) the activity, negative = inhibition was inactive: -9.61%.
`O=[N+]([O-])c1ncn(CCn2ncnc2[N+](=O)[O-])n1` was tested, and the activity, negative = inhibition was inactive: 0.38%.
With `O=[N+]([O-])c1cccc(NC2=NCC(CBr)S2)c1` (stereo not drawn) the activity, negative = inhibition was inactive: -1.92%.
With `O=C(O)CNc1ccc([As](=O)(O)O)cc1` the activity, negative = inhibition was inactive: 11.6%.
`O=C(O)c1ccccc1[As](=O)(O)O` was tested, and the activity, negative = inhibition was inactive: -1.18%.
With `CC(=O)Nc1ccc([As](=O)(O)O)cc1` the activity, negative = inhibition was inactive: -13.9%.
With `O=P(Nc1nc2ccc(Cl)cc2s1)(c1ccccc1)c1ccccc1` the activity, negative = inhibition was inactive: -4.16%.
With `Cc1cc(SC(NC(=O)c2ccc(F)cc2)C(Cl)(Cl)Cl)ncn1` (stereo not drawn) the activity, negative = inhibition was inactive: -19.4%.
For `CN(C(=O)Cc1ccc(Cl)c(Cl)c1)[C@H]1CCCC[C@@H]1N1CCCC1`, the activity, negative = inhibition was inactive: 1.86% and inactive: 3.75%.
For `Cc1ccc(NP(=O)(Oc2ccccc2F)Oc2ccccc2F)nc1`, the activity, negative = inhibition was inactive: -27.1%.
`O=[N+]([O-])c1cc([N+](=O)[O-])c(CCN2CCOCC2)c([N+](=O)[O-])c1` was tested, and the activity, negative = inhibition was inactive: -25%.
With `CCN(N=Nc1nonc1N)c1nonc1N` the activity, negative = inhibition was inactive: -2.02%.
With `Nc1cccc2ccc([As](=O)(O)O)cc12` the activity, negative = inhibition was inactive: 19.5%.
`NC(=O)c1cc([N+](=O)[O-])cc([N+](=O)[O-])c1N` was tested, and the activity, negative = inhibition was inactive: 9.15%.
With `CN(C(=O)Cc1ccc(Cl)c(Cl)c1)[C@H]1CCCC[C@H]1N1CCCC1` the activity, negative = inhibition was inactive: 15.9%.
For `Cc1ccc(N/C(=N/P(=O)(N2CCOCC2)N2CCOCC2)N2CCOCC2)cc1`, the activity, negative = inhibition was inactive: 1.03%.
In the case of `COc1ccccc1OP(=O)(Nc1ccc(C)cn1)Oc1ccccc1OC`, the activity, negative = inhibition is reported as inactive: -4.33%.
In the case of `Cc1ccc(OP(=O)(Nc2nccs2)Oc2ccc(C)cc2)cc1`, the activity, negative = inhibition is reported as inactive: 4.72%.
For `Clc1ccc(Cl)c(NC2=NCC(CBr)S2)c1` (stereo not drawn), the activity, negative = inhibition was inactive: 3.65%.
With `CN1CCCC(OC(=O)C(c2ccccc2)c2ccccc2)C1` (stereo not drawn) the activity, negative = inhibition was inactive: 3.53%.
In the case of `CC(C)CC(=O)NC(Sc1ccc(Cl)cc1)C(Cl)(Cl)Cl` (stereo not drawn), the activity, negative = inhibition is reported as inactive: 4.56%.
With `Oc1ccccc1CNc1ccccn1` the activity, negative = inhibition was inactive: 7.53%.
With `Cc1c2non([O-])c-2c(C)[n+](=O)[n+]1[O-]` the activity, negative = inhibition was inactive: -0.135%.
`O=C(NC(Sc1ccncn1)C(Cl)(Cl)Cl)c1ccccc1` (stereo not drawn) was tested, and the activity, negative = inhibition was inactive: 1.58%.
